Data taken from patent US20250281518A1, “METHODS AND AGENTS FOR PREVENTING SKELETAL AGING, OSTEOPOROSIS AND OBESITY” (The Regents of the University of California, priority 2022, published 2025).

Assay: Solubility in water

alpha-ketoglutarate [α-KG]
solubility in water: dissolve well in water
